Biological target: T1, Neutrophil elastase (Homo sapiens, UniProt P08246)
T1 sequence (P08246 whole entry): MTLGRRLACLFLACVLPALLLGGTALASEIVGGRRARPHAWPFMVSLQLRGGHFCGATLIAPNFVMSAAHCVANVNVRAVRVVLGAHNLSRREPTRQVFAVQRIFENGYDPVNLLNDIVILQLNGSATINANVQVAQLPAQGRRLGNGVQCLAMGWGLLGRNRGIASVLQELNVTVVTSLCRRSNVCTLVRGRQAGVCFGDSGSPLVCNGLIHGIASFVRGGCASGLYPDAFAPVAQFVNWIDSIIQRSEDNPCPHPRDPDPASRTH
Assay: Inhibition of human neutrophil elastase

`CC(C)(C)C(=O)Oc1ccc(S(=O)(=O)Nc2ccccc2C(=O)NCC(=O)O)cc1` [SIVELESTAT] was tested, and the Ki was 24 nM.

Source: ChEMBL document CHEMBL5053518, “1,5,6,7-Tetrahydro-4H-indazol-4-ones as human neutrophil elastase (HNE) inhibitors” (Bioorg Med Chem Lett, 2021)
